For two molecules, activity, negative = inhibition results are on record in PubChem BioAssay AID488837 (National Center for Advancing Translational Sciences (NCATS), 2010).

Sequences of proteins named here, by UniProt entry; tags and fusion partners are left off.
UniProt O00167, whole entry: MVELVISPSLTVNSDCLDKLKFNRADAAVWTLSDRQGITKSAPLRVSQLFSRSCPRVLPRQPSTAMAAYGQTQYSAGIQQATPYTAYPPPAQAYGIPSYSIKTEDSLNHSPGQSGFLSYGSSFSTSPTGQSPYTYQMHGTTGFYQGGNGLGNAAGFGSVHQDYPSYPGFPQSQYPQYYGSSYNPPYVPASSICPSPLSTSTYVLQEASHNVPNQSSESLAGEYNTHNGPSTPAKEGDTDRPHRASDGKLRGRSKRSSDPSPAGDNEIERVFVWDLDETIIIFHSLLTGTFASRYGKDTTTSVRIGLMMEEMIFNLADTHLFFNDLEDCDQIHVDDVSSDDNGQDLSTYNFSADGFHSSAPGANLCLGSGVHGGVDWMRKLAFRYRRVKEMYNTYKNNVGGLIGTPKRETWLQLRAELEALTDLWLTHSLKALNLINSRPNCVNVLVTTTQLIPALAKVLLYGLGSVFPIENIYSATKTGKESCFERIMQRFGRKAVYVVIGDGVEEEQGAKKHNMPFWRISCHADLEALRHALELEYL

The list shows a part of the results, in another mix than the full data. The source made the active and inactive calls. Calls follow the shape of the dose curve; as a rule, active = well fitted inhibition curve with a large enough effect; inconclusive = small, poorly fitted or top-dose-only effect, or effect the other way; inactive = flat fitted curve, though single readings scatter.
% is scaled to controls: 0 for no effect and ±100 for the full control effect.

The assay concerns the target Protein phosphatase EYA2 (Homo sapiens) (UniProt O00167). As to the kind of experiment: qHTS Assay for Inhibitors of the Phosphatase Activity of Eya2. The following applies: recombinant Eya2, OMFP fluorescence dephosphorylation (OMFP is methylfluorescein phosphate); at 76.9 µM (top of the series). An excerpt:
The Eya family of proteins are essential co-activators of the Six1 transcription factor. Six1 is a developmental gene that is abnormally re-expressed in a large percentage of breast cancers. This over-expression plays a causal role in the initiation and metastatic development of breast cancers. The Eya family of proteins was also found to contain a unique HAD phosphatase domain with protein tyrosine phosphatase activity which can potentially play a role in Six1-mediated breast tumorigenesis. […] We have developed and optimized a 1536 well fluorescence-based HTS assay targeting the phosphatase activity of Eya2. Inhibitors found against Eya2 could serve as potential therapeutic tools to inhibit Six1-mediated breast tumorigenesis and to increase the efficiency of radiation and certain chemo therapy. These inhibitors could also be used as chemical probes to study the function of Eya2's phosphatase activity and its role in Six1-mediated breast tumorigenesis.
The Eya2 enzyme was kindly provided by the laboratory of Dr. Rui Zhao. The 3-O-methyl-fluorescein phosphate (OMFP) substrate and all buffer reagents were purchased from Sigma Aldrich. qHTS Assay Setup: 1. Buffer- 50 mM HEPES pH 7.5, 50 mM NaCl, 5 uM MgCl2, 0.05% BSA, 1 mM DTT. 2. OMFP Stock- 10 mM solution prepared in 100% DMSO and stored in single use aliquots at -20C. […] Read on ViewLux using Excitation = 485 nm, Emission = 525 nm
A general note: qHTS replaces the single test concentration by a dilution series.
`CCC(=O)N(c1ccccc1)C1(COC)CCN(CCc2cccs2)CC1`: the activity, negative = inhibition is inactive: -36.3%. The same measure for `CCC(=O)N(c1ccccc1)C1(COC)CCN(CCn2nnn(CC)c2=O)CC1`: inactive: -9.39%.
